Test results taken from US20230175015A1, “IMMUNOSUPPRESSIVE AGENTS AND VIRAL DELIVERY RE-DOSING METHODS FOR GENE THERAPY” (MYOGENE BIO LLC, priority 2020, published 2023).

Test system: hDMD de145 mdx mice
Assay: AAV9 redosing with immunosuppressive regimens, GFP/mCherry expression (Example 2)
Format: in vivo
Details: triceps
Protocol: Experimental overview. Different immunosuppressive drug regimens were assessed for their ability to support multiple injections of AAV9 to be efficacious. The experimental paradigm is outlined in FIG. 1. Mice were given an immunosuppression protocol (IS) commencing at Day-7 (1st dose—AAV injection) and re-dosed (2nd dose—AAV9 injection) approximately 4 weeks after the first dose. The 1st dose consisted of AAV9-CMV-GFP at a concentration of 1.16×10^14 vector genomes (vgs)/kg (˜3×10^12 vgs/mouse). In some cases, the 1st dose also included AAV9-Ck8-Cas9. The 2nd dose consisted of AAV9-target (containing mCherry and 45-55 gRNAs21) at a concentration of 1.16×10^14 vgs/kg and AAV9-Ck8-Cas9 at a concentration of 1.16×10^14 vgs/kg each vector (FIGS. 2A and 2B). Immunomodulation protocols were tested to determine the efficacy of repeat dosing by GFP and mCherry expression.
Immunosuppressive drugs. […]
Redosing was assessed by looking for mCherry expression, which was only present in the second injection. […]

Substance: CTLA4Ig: hCTLA4Ig (Abatacept)
- mCherry expression (redosing) when the named drug is left out of the four-drug regimen (imaging of heart, tibialis anterior sections): mCherry expression is observed
- mCherry expression (redosing) by Western blotting when the named drug is removed from the four-drug regimen (lysates of heart, liver): Redosing of mCherry expression was shown
